# Measured affinities in a library of Ab-14 heavy chain variants

The measurements come from Engelhart et al. 2022 (doi:10.1038/s41597-022-01779-4) through the FLAb antibody collection.

The target is the same throughout: PDVDLGDISGINAS, from the HR2 region of SARS-CoV-2 spike.

Parent: Ab-14, a human scFv built as VH, three GGGGS repeats, VL. Only the CDRs of the heavy chain vary.
VH: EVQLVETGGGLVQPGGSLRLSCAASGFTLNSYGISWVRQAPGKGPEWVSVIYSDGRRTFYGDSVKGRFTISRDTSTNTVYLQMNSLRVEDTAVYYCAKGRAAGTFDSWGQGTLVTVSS
VL: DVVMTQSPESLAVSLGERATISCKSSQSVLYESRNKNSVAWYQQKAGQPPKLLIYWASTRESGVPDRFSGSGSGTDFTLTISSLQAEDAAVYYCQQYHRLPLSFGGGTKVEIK

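AAYL49 was designed without a model: most single CDR substitutions and a random sample of double and triple ones. In AlphaSeq, yeast of one mating type display the scFv and yeast of the other type display the target. Pairs that bind mate more often; barcode pairs of the diploids are counted by sequencing. A regression on co-assayed BCL2-family reference pairs converts the normalised counts of each replicate to an apparent Kd. There are three technical replicates.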

Substitutions are numbered in sequence along the VH above, starting at 1 (not Kabat).
Scale: log10 of Kd in nM, estimated from mating counts; low values are strong binders.
Replicates are averaged; those with no signal do not enter the mean.
"no signal" means that the variant was in the library but no mating with the target was seen in any replicate; the authors take this as a sign of poor binding, and no number exists.
Three control strains display no target. For library AAYL49, 15% of the pairings with them gave a signal, with a median of 4.06 and one signal in twenty below 2.83, so weak values seen in few replicates may be background.
Parent in this assay: reference entry 0.65, copy in this library 4.11 (one replicate of three).

"log10 Kd (nM), mean",seen in,changes
no signal,0/3,G33Y/S53Y/G103I
5.92,1/3,G33N/R56W/D62E
2.00,1/3,F27P/F59H/S63M
4.25,1/3,G33S/T58R/K65Q
no signal,0/3,Y32E/A101L/F105I
5.90,1/3,V50L/R57C/K65R
no signal,0/3,R56Q/F59M/F105C
1.42,3/3,G26P/S31G/Y32H
4.17,3/3,S35M/S63C/V64L
4.47,3/3,G26V/V50N/G61P
no signal,0/3,R57Q/V64R
no signal,0/3,I34N/F59P/A102M
0.64,3/3,T58V/T104D/F105M
no signal,0/3,L29K/I51M
0.61,3/3,S31K/S63A/R100K
4.69,2/3,I34H/F59H/D62E
2.36,3/3,F27N/S31D/T58V
4.04,1/3,T28Q/I34P/S53L
no signal,0/3,S53F/R57Y/A101R
no signal,0/3,S35N/F59K/A101N
2.31,3/3,I34P/S53H/D106T
4.53,1/3,F27P/V50Y
4.45,2/3,S31V/I34F/T58Y
no signal,0/3,S53C/V64D/R100I
no signal,0/3,G55E/T58I/G61P
no signal,0/3,S31Y/G33S/Y60E
3.27,1/3,V50L/G99E/T104C
3.42,1/3,I34P/G55T/A101R
2.16,3/3,S63A/K65L/R100K
no signal,0/3,G26D/S31G/D106F
no signal,0/3,G26L/G103A
no signal,0/3,N30H/G33P/S53K
2.72,1/3,S53F/V64D
4.88,1/3,G26W/R56S/R57A
4.56,3/3,R57M/T104W
no signal,0/3,I51K/D54T/D106Q
4.13,3/3,S35N/A101C/T104D
no signal,0/3,I51P/D54K/R57Y
1.39,3/3,R56I/G103R/D106F
5.01,2/3,F59Y/V64P/K65C
3.69,2/3,D54A/R57M/G99H
4.41,1/3,T28R/G33R/I51A
no signal,0/3,T28C/I51R/G99M
no signal,0/3,Y32K/Y52H/F59C
no signal,0/3,F27E/I34Q/R57M
no signal,0/3,G55T/R57M/S107L
no signal,0/3,Y32D/R57Q/S63Y
2.86,1/3,Y52F/K65C
5.25,2/3,T28H/T58N/Y60C
3.77,2/3,G33I/K65D/R100K
no signal,0/3,Y32Q/Y52M/T58N
1.98,3/3,F27D/G61D/K65Y
5.00,1/3,Y60K/T104C/D106C
no signal,0/3,L29E/G99C/A101Y
1.83,3/3,T28S/T58E/D62E

The first 4 variants above that were never detected:

{"changes": "G33Y/S53Y/G103I", "log10 Kd (nM), mean": "no signal", "seen in": "0/3"}
{"changes": "Y32E/A101L/F105I", "log10 Kd (nM), mean": "no signal", "seen in": "0/3"}
{"changes": "R56Q/F59M/F105C", "log10 Kd (nM), mean": "no signal", "seen in": "0/3"}
{"changes": "R57Q/V64R", "log10 Kd (nM), mean": "no signal", "seen in": "0/3"}